# Experimental logP (octanol/water) values from OPERA 2.9

logP is the log10 of the octanol-water partition coefficient; higher is more lipophilic.
The databases behind each value are named after "via".

| SMILES | log Kow | via |
|---|---|---|
| Cc1c(Br)c(Br)c(Br)c(Br)c1Br | 5.43 | OCHEM |
| CCCCC(CC)C(=O)OCCOCCOCCOC(=O)C(CC)CCCC (stereo unspecified) | 6.1 | eChemPortal |
| N[C@H](Cc1cc(I)c(Oc2cc(I)c(O)c(I)c2)c(I)c1)C(=O)O | 4 | PubChem |
| CC(C)N(C(=O)CO)c1ccc(F)cc1 | 1.6 | eChemPortal |
| COc1cc(OC)c(NC(=O)c2cc3ccccc3cc2O)cc1Cl | 2.97 | eChemPortal |
| Clc1cc(Cl)c(Cl)c(-c2cccc(Cl)c2Cl)c1 | 6.26 | OCHEM |
| CCOC(=O)C(C)(C)c1ccccc1 | 3.5 | eChemPortal |
| CCc1cc(CC)c2sc3ccccc3c(=O)c2c1 | 6.267 | eChemPortal |
| C=CS(=O)(=O)CCOCCNc1nc(F)nc(Nc2ccc(/N=N/c3ccc(/N=N/c4cc(S(=O)(=O)[O-])c5cc(S(=O)(=O)[O-])cc(S(=O)(=O)[O-])c5c4)cc3)cc2)n1.[Na+].[Na+].[Na+] | -5.9 | eChemPortal |
| O=C(O)c1ccccc1C(=O)c1ccccc1 | 2.18 | eChemPortal |
| C#CCOC(=O)NCCCC | 1.9 | eChemPortal |
| O=S1(=O)CC=CC1 | 1 | OFMPub |
| Cn1cc(C(=O)Cl)c(C(F)F)n1 | 0.253 | eChemPortal |
| CC(C)C=NCC1(C)CC(N=CC(C)C)CC(C)(C)C1 (stereo unspecified) | 5.2 | eChemPortal |
| CC1=C(/C=C/C(C)=C\C[P+](c2ccccc2)(c2ccccc2)c2ccccc2)C(C)(C)CC(O)C1=O.[Br-] (stereo partly drawn) | -0.04 | eChemPortal |
| CCOc1ccccc1NC(=O)c1cc2ccccc2cc1O | 2.87 | eChemPortal |
| CC(=O)N1CSCC1C(=O)O (stereo unspecified) | -0.5 | eChemPortal |
| O=C1CCCC(=O)C1 | 0.461 | eChemPortal |
| CC(C)CC1CC(C)(O)CCO1 (stereo unspecified) | 1.65 | OCHEM, eChemPortal |
| CCN1CC(CCN2CCOCC2)C(c2ccccc2)(c2ccccc2)C1=O (stereo unspecified) | 3.6 | PubChem |
| CC1=NN(c2ccc(/N=N/[c-]3c(C)nn(-c4ccc(S(=O)(=O)[O-])cc4)c3=O)cc2)C(=O)C1/N=N/c1ccc(S(N)(=O)=O)cc1[O-].CC1=NN(c2ccc(/N=N/[c-]3c(C)nn(-c4ccc(S(=O)(=O)[O-])cc4)c3=O)cc2)C(=O)C1/N=N/c1ccc(S(N)(=O)=O)cc1[O-].[Co+3].[Na+].[Na+].[Na+] (stereo partly drawn) | -2.467 | eChemPortal |
| CCO[Si](CCC1CCC2OC2C1)(OCC)OCC (stereo unspecified) | 4.55 | eChemPortal |
| Clc1cc(Cl)c(Cl)c(-c2cc(Cl)c(Cl)c(Cl)c2)c1 | 7.47 | OCHEM |
| COC(=O)CCN(CCC(=O)OC)c1ccc(N=Nc2c(Cl)cc([N+](=O)[O-])cc2Br)cc1 | 5.3 | eChemPortal |
| Clc1cc(Cl)ncn1 | 1.45 | eChemPortal |
| CC(C)COC(=S)[S-].[Na+] | -2.48 | eChemPortal |
| CC1CCC(C(C)C)C2(C1)OCC(CO)O2 (stereo unspecified) | 3.036 | eChemPortal |
| C=C(C)C(=O)OCCC[Si](OC)(OC)OC | 2.1 | eChemPortal |
| COc1ccc(/N=N/c2ccc(/N=N/c3cccc(S(=O)(=O)[O-])c3)cc2OC)cc1.[Na+] | -2.18 | eChemPortal |
| CC(C=O)Cc1ccc(C(C)(C)C)cc1 (stereo unspecified) | 4.2 | OCHEM, eChemPortal |
| CN(C)Cc1cc(CN(C)C)c(O)c(CN(C)C)c1 | 0.219 | eChemPortal |
| Cc1cc(CCC(=O)OCCOCCOCCOC(=O)CCc2cc(C)c(O)c(C(C)(C)C)c2)cc(C(C)(C)C)c1O | 4.7 | eChemPortal |
| C=C(c1ccc(C(=O)O)cc1)c1cc2c(cc1C)C(C)(C)CCC2(C)C | 6.9 | PubChem |
| COC(=O)c1c(C)cc(O)c(C)c1O | 2.6 | eChemPortal |

The first 6 entries again:

| SMILES | log Kow | via |
|---|---|---|
| Cc1c(Br)c(Br)c(Br)c(Br)c1Br | 5.43 | OCHEM |
| CCCCC(CC)C(=O)OCCOCCOCCOC(=O)C(CC)CCCC (stereo unspecified) | 6.1 | eChemPortal |
| N[C@H](Cc1cc(I)c(Oc2cc(I)c(O)c(I)c2)c(I)c1)C(=O)O | 4 | PubChem |
| CC(C)N(C(=O)CO)c1ccc(F)cc1 | 1.6 | eChemPortal |
| COc1cc(OC)c(NC(=O)c2cc3ccccc3cc2O)cc1Cl | 2.97 | eChemPortal |
| Clc1cc(Cl)c(Cl)c(-c2cccc(Cl)c2Cl)c1 | 6.26 | OCHEM |

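The numbers are reported measurements, compiled and curated for the OPERA QSAR suite. A listed value is a point estimate from one report or more. Method, purity and exact conditions of the single measurements are not given. Where a salt, mixture or single isomer is drawn, the source does not say that exactly this form was tested. Unmarked limits or estimates from the upstream databases cannot be ruled out.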

Data: OPERA 2.9 data sets, kmansouri/OPERA on GitHub.